The nature of this data set: Phase I study, FE study group: asciminib under fasted, low-fat meal and high-fat meal conditions (PK and safety).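 Further: healthy volunteers, open-label single-center study, PK parameters from individual plasma concentration-time profiles by non-compartmental analysis, 7-day washout between treatment periods.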

Regarding `O=C(Nc1ccc(OC(F)(F)Cl)cc1)c1cnc(N2CC[C@@H](O)C2)c(-c2ccn[nH]2)c1` [asciminib, N-[4-(Chlorodifluoromethoxy)phenyl]-6-[(3R)-3-hydroxypyrrolidin-1-yl]-5-(1H-pyrazol-5-yl)pyridine-3-carboxamide], the “AE severity and serious AEs” value was “all AEs were CTCAE Grade 1 or 2, and there were no serious AEs”. Where the note is “single doses of 40 mg asciminib”, the tolerability entry is on record as “well tolerated”.
